Values joined by “and” are separate entries in the source; they are usually repeats but may differ in a detail not shown here. Identical values can stand only once.
Assays:
human hepatocytes = assay: Metabolite identification in human hepatocytes; format: in vitro ADME; conditions: 5-MeO-DMT free base 10 μM, up to 120 minutes
Method: All samples were stored at −80° C. (nominal) prior to analysis.
Appropriate blank and control samples were also analysed. […] (nominal).

[1] = tested on: human hepatocytes (Hμrel HumanPool co-culture); assay: Metabolic stability in Hμrel human hepatocyte co-culture; format: in vitro ADME
Method: The metabolic stability of 5-MIAA and 5-methoxytryptophol was investigated in a Hμrel co-culture assay with human hepatocytes (Hμrel HumanPool™, primary hepatic co-culture model from Visikol Inc.).
The incubations were performed using 1 and 10 μM initial concentrations and sampling at 0, 1, 2, 4, 8, 24, 48, and 72 hours (h) time points. The samples were analysed using UPLC/QE-orbitrap-MS.
The remaining LC/MS peak areas detected for test compounds after each incubation time point with Hμrel co-culture assay, relative to corresponding 0 min incubation samples, are shown in the tables below.

[2] = LC-MS/MS of 5-MeO-DMT and metabolites in breastmilk, serum and urine of a lactating PPD patient; conditions: 5-MIAA after 5-MeO-DMT

5-methoxyindole acetic acid [5-MIAA]
Relative Proportion of compound after incubation of 5-MeO-DMT (human hepatocytes; listed as 5-Methoxyindole acetic acid (5-MIAA)): 61% | Relative Proportion of compound after incubation of 5-MeO-DMT (human hepatocytes; acetic acid): about 60% | predicted hepatic extraction ratio [1]: 2% | relative LC/MS peak area for 5-MIAA ([1]; 0 h, incubation by row: r6 1 μM Hepatocytes, r7 1 μM Stromal cells, r8 10 μM Hepatocytes, r9 10 μM Stromal cells): 100% | relative LC/MS peak area for 5-MIAA ([1]; 2 h, rows as E133): 100% | relative LC/MS peak area for 5-MIAA ([1]; 4 h, rows as E133, acetic acid): 99% and 103% and 101% | relative LC/MS peak area for 5-MIAA ([1]; 8 h, rows as E133, acetic acid): 95% and 107% and 96% and 106% | relative LC/MS peak area for 5-MIAA ([1]; 24 h, rows as E133, acetic acid): 99% and 108% and 96% and 97% | relative LC/MS peak area for 5-MIAA ([1]; 48 h, rows as E133, acetic acid): 88% and 111% and 86% and 103% | relative LC/MS peak area for 5-MIAA ([1]; 72 h, rows as E133, acetic acid): 82% and 135% and 75% and 115% | half-life ([1]; human hepatocytes, 1 μM): 15 400 min | fold lower breast milk concentration at 24 hours than at one hour [2]: ~400 fold

— patent US20240115550A1, “TREATMENT OF MENTAL DISORDERS” (GH Research Ireland Limited, priority 2022, published 2024)
